Results on four molecules are retold here after US20240108766A1 (Bayer, published 2024).

What is called koff is the rate constant with which the complex falls apart. For orientation: Kd means a measure of binding affinity in units of concentration. The kon is the rate constant with which the complex forms.

Residue numbers refer to the chain shown, from its start.

In experiment [1] the target is T1, human LRRC15 extracellular domain with C-terminal His tag (human, UniProt Q8TF66 22-538).
T1 construct: Recombinant, made in HEK293; the entry holds the extracellular domain and the His tag; SPR analyte; also called TPP-1545; hLRRC15 CT-His
T1 sequence: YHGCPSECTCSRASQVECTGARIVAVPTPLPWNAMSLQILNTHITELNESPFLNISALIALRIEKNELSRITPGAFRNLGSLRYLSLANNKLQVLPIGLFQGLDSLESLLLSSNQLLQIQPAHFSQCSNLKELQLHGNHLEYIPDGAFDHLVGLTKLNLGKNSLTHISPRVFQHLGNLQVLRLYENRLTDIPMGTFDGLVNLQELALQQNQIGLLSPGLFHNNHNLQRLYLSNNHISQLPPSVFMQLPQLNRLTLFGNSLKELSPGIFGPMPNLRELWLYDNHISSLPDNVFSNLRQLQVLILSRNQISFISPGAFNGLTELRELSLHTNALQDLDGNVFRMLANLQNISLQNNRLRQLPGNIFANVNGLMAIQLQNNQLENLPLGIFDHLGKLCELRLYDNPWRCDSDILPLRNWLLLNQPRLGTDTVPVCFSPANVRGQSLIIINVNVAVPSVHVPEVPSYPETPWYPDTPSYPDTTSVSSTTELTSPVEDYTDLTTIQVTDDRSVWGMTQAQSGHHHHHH
As to the kind of experiment: SPR (Example 3), 20°C; kd as listed in Table 6. As to the method: (§1) To assess if anti-LRRC-15 antibodies show a difference in binding at different temperatures, binding assays were conducted using surface plasmon resonance (SPR). Binding assays were performed on a Biacore T200 instrument at temperatures of 10° C., 20° C., 25° C. and 37° C. with assay buffer HBS EP+, 1 mg/ml BSA (bovine serum albumine), 300 mM NaCl, 0.05% NaN₃. Antibodies were captured via anti-human Fc IgGs covalently amine coupled to a CM5 sensor chip and human LRRC15 was used as an analyte in a concentration series from 1.56-200 nM in multi cycle kinetics mode. Pre-experiments were conducted to have an equal capture level at each temperature. Obtained sensorgrams were fitted to a 1:1 Langmuir binding model to derive kinetic data.

Experiment [2] deals with T1, human LRRC15 extracellular domain with …. As to the kind of experiment: SPR (Example 3), 37°C; kd as listed in Table 6. As to the method: as §1
For experiment [3] the target is unchanged. Description: SPR (Example 3), 25°C; kd as listed in Table 6. As to the method:
as §1

The target of experiment [4] is T2, murine LRRC15 extracellular domain with C-terminal His tag (mouse, UniProt Q80X72 22-536).
T2 construct: Recombinant, made in HEK293; the entry holds the extracellular domain and the His tag; SPR analyte; also called TPP-9045
Description: SPR (Example 6), overview table, repeats Table 9; head prints [M^-1]. As to the method: (§2) To assess the binding kinetics and affinity of anti-LRRC15 antibodies as well as their species cross-reactivity profile, binding assays were conducted using surface plasmon resonance (SPR). Binding assays were performed on a Biacore T200 instrument at 25° C. using assay buffer HBS EP+, 1 mg/ml BSA, 300 mM NaCl, 0.05% NaN3. Antibodies were captured via anti-human Fc IgGs covalently amine coupled to a CM5 sensor chip and human, mouse and cynomolgus LRRC15 were used as analytes in a concentration series from 1.56-200 nM in multi cycle kinetics mode. To obtain reliable dissociation rate constants (kd) the dissociation rate was prolonged from 2.000 seconds to 12.000 seconds for two concentrations of antigen injection (25 nM and 200 nM). Obtained sensorgrams were fitted to a 1:1 Langmuir binding model to derive kinetic data.

Experiment [5] concerns the target T1, human LRRC15 extracellular domain with …. Description: SPR Biacore T200, antibody captured, LRRC15 analyte, 10°C. As to the method: as §1
(Surface plasmon resonance follows binding to a sensor surface in real time, without labels.)

Experiment [6] has the same target. As to the kind of experiment: SPR Biacore T200, antibody captured, LRRC15 analyte, 20°C. As to the method:
as §1

The target of experiment [7] is T2, murine LRRC15 extracellular domain with …. Description: SPR Biacore T200, 25°C, antibody captured, LRRC15 analyte. As to the method:
as §2

In experiment [8] the target is T1, human LRRC15 extracellular domain with …. Described as above. As to the method:
as §2

Experiment [9] concerns the target T3, cynomolgus (Macaca fascicularis) LRRC15 extracellular domain with C-terminal His tag (cynomolgus monkey (Macaca fascicularis), UniProt Q8TF66 22-538 (human entry)).
T3 construct: Recombinant, made in HEK293; the entry holds the extracellular domain and the His tag; SPR analyte; also called TPP-9046
T3 chain: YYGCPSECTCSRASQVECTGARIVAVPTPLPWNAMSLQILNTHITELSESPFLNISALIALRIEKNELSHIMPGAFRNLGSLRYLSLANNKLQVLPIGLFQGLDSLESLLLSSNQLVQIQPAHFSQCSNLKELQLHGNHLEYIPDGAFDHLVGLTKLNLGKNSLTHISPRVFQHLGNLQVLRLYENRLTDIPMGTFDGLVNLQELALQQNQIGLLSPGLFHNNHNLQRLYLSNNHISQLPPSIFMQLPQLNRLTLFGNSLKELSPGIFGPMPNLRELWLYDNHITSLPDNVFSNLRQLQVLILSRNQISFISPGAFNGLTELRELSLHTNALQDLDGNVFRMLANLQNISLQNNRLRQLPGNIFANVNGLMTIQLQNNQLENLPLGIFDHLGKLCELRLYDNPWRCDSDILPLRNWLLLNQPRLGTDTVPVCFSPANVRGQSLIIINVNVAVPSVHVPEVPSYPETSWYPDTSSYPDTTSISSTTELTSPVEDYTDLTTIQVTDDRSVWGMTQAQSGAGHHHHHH
Described as above. As to the method: as §2

Experiment [10] addresses T1, human LRRC15 extracellular domain with …. As to the kind of experiment: SPR Biacore T200, antibody captured, LRRC15 analyte, 25°C. As to the method: as §1
Experiment [11] shares this target. Description: SPR (Example 3), 10°C; kd as listed in Table 6. As to the method:
as §1

The target is the same in experiment [12]. Description: SPR Biacore T200, antibody captured, LRRC15 analyte, 37°C. As to the method:
as §1

The target is the same in experiment [13]. As to the kind of experiment: SPR (Example 3), 10°C; kd as listed in Table 6; 10° C. As to the method:
as §1

For experiment [14], the target named is T2, murine LRRC15 extracellular domain with …. Description: binding of the purified IgG, method not given.
The target of experiment [15] is T1, human LRRC15 extracellular domain with …. As to the kind of experiment: calculated from SPR kd, 20°C. As to the method:
as §1

In experiment [16] the target is T3, cynomolgus (Macaca fascicularis) LRRC15 …. Description: SPR (Example 6), overview table, repeats Table 9; head prints [M^-1]. As to the method:
as §2

For experiment [17], the target named is T1, human LRRC15 extracellular domain with …. Description: calculated from SPR kd, 37°C. As to the method:
as §1

Experiment [18] has the same target. Description: calculated from SPR kd, 25°C. As to the method: as §1

B1: TPP-14392 (antibody, human IgG1, kappa, V domains shown)
VH: EVQLLESGGGLVQPGGSLRLSCAASGFTFSGYMMSWVRQAPGKGLEWVSGIYPSPGYTYYADSVKGRFTISRDNSKNTLYLQMNSLRAEDTAVYYCAREKASDLSGSYSEALDYWGQGTLVTVSS
VL: DIQMTQSPDSLSASVGDRVTITCRASQDVGSWLAWYQQKPGKAPKLLIFAASYLESGIPSRFSGSGSGTDFTLTISSLQPEDFATYYCQQANGFPLTFGGGTKVEIKR
notes: Variant of TPP-1633, human IgG1 kappa; also called 13612-rec05-hIgG1Kappa
With B1, the koff in experiment [1] came out at 0.00013 s⁻¹; in experiment [2], 0.005 s⁻¹; in experiment [3], 0.00034 s⁻¹; in experiment [5], 6e-05 s⁻¹; in experiment [6] it was 0.00013 s⁻¹; in experiment [7], 0.0012 s⁻¹. Moreover, the koff in experiment [8] came to 0.00021 s⁻¹; in experiment [9] it was 0.0004 s⁻¹; in experiment [10], 0.00034 s⁻¹; in experiment [11], 6e-05 s⁻¹; in experiment [12], 0.005 s⁻¹. Moreover, the Kd was 7.5 nM in [4], 1.6 nM in experiment [5] and 7.5 nM in experiment [7]. Besides, the kon came out at 37000 M⁻¹ s⁻¹ in [5]; 45000 M⁻¹ s⁻¹ in experiment [6]; 160000 M⁻¹ s⁻¹ in experiment [7]; 37000 M⁻¹ s⁻¹ in [8]; 39000 M⁻¹ s⁻¹ in experiment [9]; 50000 M⁻¹ s⁻¹ in experiment [10]. The same molecule had a kon in experiment [12] of 55000 M⁻¹ s⁻¹.

B2: TPP-1633 (antibody, human IgG1, kappa, V domains shown)
VH: B1 VH with S35Q, P55G, Y59N, V93T
VL: B1 VL with Y53S
notes: also called 060E-M016-G14-hIgG1
For the molecule B2, the koff is 0.0093 s⁻¹ in experiment [1]; 0.022 s⁻¹ in experiment [3]; 0.0014 s⁻¹ in experiment [5]; 0.0093 s⁻¹ in [6]; 0.012 s⁻¹ in experiment [7]; 0.017 s⁻¹ in experiment [8]. Further, the koff in experiment [9] was determined as 0.029 s⁻¹; in experiment [13] it was 0.0014 s⁻¹; in experiment [10], 0.022 s⁻¹. Also, the Kd in experiment [4] was 270 nM; in [7] it was 270 nM; in experiment [14], roughly 200 nM. Also, the kon was found to be 80000 M⁻¹ s⁻¹ in [5]; 120000 M⁻¹ s⁻¹ in experiment [6]; 45000 M⁻¹ s⁻¹ in experiment [7]; 110000 M⁻¹ s⁻¹ in [8]; 150000 M⁻¹ s⁻¹ in experiment [9]; 140000 M⁻¹ s⁻¹ in experiment [10]. In addition, the “Complex Half Life” value in [15] is 1.2 min.

B3: TPP-17074 (antibody, human IgG1, kappa, V domains shown)
VH: B1 VH with P55G, T58A, Y59L, S102A, S105F
VL: B1 VL
notes: Variant of TPP-1633, human IgG1; also called 438H-M161-K22-hIgG1
In the case of B3, the koff was determined as 6.1e-05 s⁻¹ in experiment [1]; 0.0015 s⁻¹ in experiment [2]; 0.00012 s⁻¹ in [3]; 1.8e-05 s⁻¹ in experiment [5]; 6.1e-05 s⁻¹ in [6]; 0.00016 s⁻¹ in experiment [7]. Further, the koff in experiment [8] was found to be 6.8e-05 s⁻¹; in experiment [9] it was 8.4e-05 s⁻¹; in experiment [10], 0.00012 s⁻¹; in experiment [11] it was 1.8e-05 s⁻¹; in experiment [12], 0.0015 s⁻¹. In addition, the Kd in [4] was 2.1 nM; in experiment [16] it was 0.16 nM; in experiment [7], 2.1 nM; in experiment [9], 0.16 nM. For the same molecule, the kon is 320000 M⁻¹ s⁻¹ in experiment [5]; 450000 M⁻¹ s⁻¹ in experiment [6]; 77000 M⁻¹ s⁻¹ in experiment [7]; 370000 M⁻¹ s⁻¹ in experiment [8]; 530000 M⁻¹ s⁻¹ in [9]; 550000 M⁻¹ s⁻¹ in [10]. In addition, the kon in experiment [12] came out at 790000 M⁻¹ s⁻¹. Moreover, the “Complex Half Life” value in experiment [17] was 7.7 min.

B4: TPP-12942 (antibody, human IgG1, kappa, V domains shown)
VH: EVQLVQSGAEVKKPGASVKVSCKASGYKFSSYWIEWVKQAPGQGLEWIGEILPGSDTTNYNEKFKDRATFTSDTSINTAYMELSRLRSDDTAVYYCARDRGNYRAWFGYWGQGTLVTVSS
VL: DIQMTQSPSSLSASVGDRVTITCRASQDISNYLNWYQQKPGGAVKFLIYYTSRLHSGVPSRFSGSGSGTDYTLTISSLQPEDFATYFCQQGEALPWTFGGGTKVEIKR
notes: Prior art humanized IgG1 kappa antibody, used as comparator; also called huM25; huM25-hIgG1Kappa
Take B4: the koff in [1] came out at 0.00088 s⁻¹; in [2], 0.0072 s⁻¹; in experiment [3] it was 0.0019 s⁻¹; in [5] it was 0.0002 s⁻¹; in experiment [6] it was 0.00088 s⁻¹; in experiment [8], 0.0011 s⁻¹. In addition, the koff in experiment [9] stood at 0.002 s⁻¹; in experiment [10], 0.0019 s⁻¹; in [11], 0.0002 s⁻¹; in experiment [12], 0.0072 s⁻¹. Moreover, the kon in experiment [5] is 37000 M⁻¹ s⁻¹; in experiment [6] it was 67000 M⁻¹ s⁻¹; in experiment [8], 42000 M⁻¹ s⁻¹; in [9], 55000 M⁻¹ s⁻¹; in [10] it was 90000 M⁻¹ s⁻¹; in experiment [12] it was 100000 M⁻¹ s⁻¹. The molecule further showed a dissociation constant (Kd) in experiment [6] of 13 nM. Further, the “Complex Half Life” value in experiment [18] is 6.1 min.
